Experimental data reported in paper PMC11962085, “Molecular mechanisms of urate transport by the native human URAT1 and its inhibition by anti-gout drugs” (Cell Discovery, 2025).

By UniProt entry, the sequences of proteins in these tests, tags left out.
UniProt Q96S37, whole entry F360A: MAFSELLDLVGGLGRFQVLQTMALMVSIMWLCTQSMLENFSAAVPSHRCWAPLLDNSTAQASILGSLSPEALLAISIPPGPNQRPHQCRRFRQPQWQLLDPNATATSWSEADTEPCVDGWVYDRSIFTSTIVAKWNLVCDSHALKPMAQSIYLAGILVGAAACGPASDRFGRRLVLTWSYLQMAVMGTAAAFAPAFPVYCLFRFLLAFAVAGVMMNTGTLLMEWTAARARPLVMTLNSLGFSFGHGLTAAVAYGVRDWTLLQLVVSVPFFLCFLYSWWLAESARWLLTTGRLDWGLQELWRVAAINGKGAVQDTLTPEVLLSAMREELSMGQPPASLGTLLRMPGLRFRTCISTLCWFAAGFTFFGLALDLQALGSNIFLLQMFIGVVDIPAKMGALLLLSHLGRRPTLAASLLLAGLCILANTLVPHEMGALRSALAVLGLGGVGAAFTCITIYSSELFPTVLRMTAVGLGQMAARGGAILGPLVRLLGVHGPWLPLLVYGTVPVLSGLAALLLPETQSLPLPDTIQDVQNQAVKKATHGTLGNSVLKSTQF
UniProt Q96S37, whole entry F449A: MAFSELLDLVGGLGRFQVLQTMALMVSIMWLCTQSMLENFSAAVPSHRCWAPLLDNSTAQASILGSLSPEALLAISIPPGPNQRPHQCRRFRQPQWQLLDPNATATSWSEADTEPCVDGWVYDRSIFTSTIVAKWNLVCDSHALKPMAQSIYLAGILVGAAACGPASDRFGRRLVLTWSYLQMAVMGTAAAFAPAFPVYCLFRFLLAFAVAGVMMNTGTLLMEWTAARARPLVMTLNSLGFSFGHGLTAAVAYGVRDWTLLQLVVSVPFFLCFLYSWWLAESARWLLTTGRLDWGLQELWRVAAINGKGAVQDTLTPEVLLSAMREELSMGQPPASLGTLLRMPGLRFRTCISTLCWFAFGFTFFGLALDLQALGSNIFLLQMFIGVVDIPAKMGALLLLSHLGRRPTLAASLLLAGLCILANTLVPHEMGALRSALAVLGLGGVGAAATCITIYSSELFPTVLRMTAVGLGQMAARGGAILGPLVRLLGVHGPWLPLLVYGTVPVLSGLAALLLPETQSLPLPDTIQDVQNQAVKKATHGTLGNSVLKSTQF
UniProt Q96S37, whole entry R477K: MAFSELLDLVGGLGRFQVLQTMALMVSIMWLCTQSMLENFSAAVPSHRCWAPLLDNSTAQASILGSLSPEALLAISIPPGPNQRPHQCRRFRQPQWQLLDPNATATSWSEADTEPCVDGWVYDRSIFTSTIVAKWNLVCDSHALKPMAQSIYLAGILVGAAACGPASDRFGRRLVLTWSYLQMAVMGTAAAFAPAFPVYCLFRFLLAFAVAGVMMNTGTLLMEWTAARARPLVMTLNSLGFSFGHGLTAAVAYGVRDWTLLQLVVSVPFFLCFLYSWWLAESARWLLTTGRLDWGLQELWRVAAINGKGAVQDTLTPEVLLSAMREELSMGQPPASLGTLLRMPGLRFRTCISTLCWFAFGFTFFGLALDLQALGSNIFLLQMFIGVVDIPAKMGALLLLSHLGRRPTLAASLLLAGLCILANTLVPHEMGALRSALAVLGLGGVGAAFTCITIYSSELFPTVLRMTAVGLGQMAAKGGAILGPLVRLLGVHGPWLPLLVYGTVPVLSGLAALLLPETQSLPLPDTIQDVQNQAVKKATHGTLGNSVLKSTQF

What was measured:
Format in all cases: cell-based
Conditions in all cases: n=3-8, read-out: pIC50 (Mean ± SEM) (converted)
[1] = biological target: T1, hURAT1 F360A (Homo sapiens, UniProt Q96S37, F360A); test: 14C-urate uptake inhibition assay, hURAT1 F360A mutant in HEK293 cells
T1 construct: Flag; expressed in transfected cells; host or cells: HEK293
Protocol: (§1) The cells were seeded at a density of 30,000 cells per well in Isoplate-96 plates (Perkin Elmer).

[2] = biological target: T2, hURAT1 F449A (Homo sapiens, UniProt Q96S37, F449A); test: 14C-urate uptake inhibition assay, hURAT1 F449A mutant in HEK293 cells
T2 construct: Flag; expressed in transfected cells; host or cells: HEK293
Protocol: as §1

[3] = biological target: T3, hURAT1 R477K (Homo sapiens, UniProt Q96S37, R477K); test: 14C-urate uptake inhibition assay, hURAT1 R477K mutant in HEK293 cells
T3 construct: Flag; expressed in transfected cells; host or cells: HEK293
Protocol: as §1

IC50 [1]: 16.2 µM
IC50 [2]: 263 µM
IC50 [3]: 37.2 µM
SMILES: O=C(O)CSc1nnc(Br)n1-c1ccc(C2CC2)c2ccccc12 [lesinurad]
